pIC50: −log10 of the molar value.
What was measured:
[1] = tested on: Human pancreatic cancer cell line AsPC-1 (G12D mutation Kras); experiment: AsPC-1 cell growth inhibition (AsPC-1 CGI); conditions: read-out: AsPC-1 cell growth inhibition, 50% growth inhibitory concentration (IC50 value); 96 hours, CellTiter-Glo, values classified in ranges
[2] = target: protein-protein interaction between Kras and SOS1 (biotin-tagged human Kras loaded with GDP, His-tagged human SOS1) (Homo sapiens (Human), UniProt P01116, G12D); experiment: Protein-protein interaction inhibition between Kras and SOS1 (KrasG12D-SOS PPI) using AlphaScreen; assay type: biochemical; conditions: read-out: KRAS G12D-SOS PPI IC50;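 further: kras produced in E. coli, Ni-coupled donor beads and streptavidin acceptor beads, excitation 680 nm with emission detected at 520–620 nm via singlet oxygen transfer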

By UniProt entry, the sequences of proteins in these tests, tags left out. Residues count along the entry.
UniProt P01116, 1-188 isoform 2 G12D limits assumed: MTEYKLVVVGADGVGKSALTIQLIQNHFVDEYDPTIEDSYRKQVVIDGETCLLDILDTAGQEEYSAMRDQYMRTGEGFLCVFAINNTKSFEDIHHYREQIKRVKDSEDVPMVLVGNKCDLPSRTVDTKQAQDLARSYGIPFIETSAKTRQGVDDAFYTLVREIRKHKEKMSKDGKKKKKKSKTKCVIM

Row | Structure (SMILES) | pIC50 [1] | pIC50 [2]
1 | CC[C@H](C)[C@@H]1NC(=O)[C@H](CC(C)C)N(C)C(=O)C[C@@H](C(=O)N2CCCCC2)N(C)C(=O)[C@H](COC2CCC2)N(C)C(=O)C2(CCCC2)NC(=O)[C@@H]2CCCN2C(=O)[C@H](CCc2ccc(C(F)(F)F)c(Cl)c2)NC(=O)CN(C)C(=O)[C@H](CC2CCCCC2)N(C)C(=O)[C@@H]2CCN2C(=O)[C@H](C)N(C)C1=O | < 6.30 | 
2 | CC[C@H](C)[C@@H]1NC(=O)[C@@H]2CCCCN2C(=O)C[C@@H](C)NC(=O)[C@H](C(C)C)N(C)C(=O)C2(CCCC2)NC(=O)[C@@H]2CCCN2C(=O)[C@H](CCc2ccc(C(F)(F)F)c(Cl)c2)NC(=O)CN(C)C(=O)[C@H](CC2CCCCC2)N(C)C(=O)CN(C)C(=O)CN(C)C1=O | < 6.30 | 7.49
3 | CC[C@H](C)[C@@H]1NC(=O)[C@H](C)N(C)C(=O)C[C@@H](C(=O)N2CCCCC2)N(C)C(=O)[C@H](C2CCCCC2)N(C)C(=O)C2(CCCC2)NC(=O)[C@H](Cc2cccnc2)N(C)C(=O)[C@H](CCc2ccc(C(F)(F)F)c(Cl)c2)NC(=O)CN(C)C(=O)[C@H](CC2CCCCC2)N(C)C(=O)[C@@H]2CCN2C(=O)CN(C)C1=O | < 6.30 | 
4 | CCC[C@@H]1NC(=O)[C@H](CC(C)C)N(C)C(=O)C[C@@H](C(=O)N2CCCCC2)N(C)C(=O)[C@H](C(C)C)N(C)C(=O)C2(CCCC2)NC(=O)[C@@H]2CCCN2C(=O)[C@H](CCc2ccc(C(F)(F)F)c(Cl)c2)NC(=O)CN(C)C(=O)[C@H](CC2CCCCC2)N(C)C(=O)[C@@H]2CCN2C(=O)[C@H](C)N(C)C1=O | < 6.30 | 
5 | CCO[C@@H]1C[C@H]2C(=O)NC3(CCCC3)C(=O)N(C)[C@@H]([C@@H](C)CC)C(=O)N(C)[C@H](C)CC(=O)N(C)[C@@H](CC(C)C)C(=O)N[C@@H]([C@@H](C)CC)C(=O)N[C@@H](C)C(=O)N3CC[C@H]3C(=O)N(CC)[C@@H](Cc3ccc(C(F)(F)F)cc3)C(=O)N(C)CC(=O)N[C@@H](CCc3cc(F)c(C(F)(F)F)c(F)c3)C(=O)N2C1 | ≥ 7.70 | 
6 | CC[C@H](C)[C@@H]1NC(=O)[C@H](CC(C)C)N(C)C(=O)C[C@@H](C)N(C)C(=O)[C@H]([C@@H](C)CC)N(C)C(=O)C2(CCCC2)NC(=O)[C@@H]2CCCN2C(=O)[C@H](CCc2ccc(C(F)(F)F)c(Cl)c2)NC(=O)CN(C)C(=O)[C@H](Cc2ccc(C(F)(F)F)cc2)N(C)C(=O)[C@@H]2CCN2C(=O)[C@H](C)N(C)C1=O | ≥ 7.70 | 
7 | CC[C@H](C)[C@@H]1NC(=O)[C@H](C)N(C)C(=O)C[C@@H](C)N(C)C(=O)[C@H](C2CCCCC2)N(C)C(=O)C(C)(C)N(C)C(=O)[C@@H]2CCCN2C(=O)[C@H](CCc2ccc(C(F)(F)F)c(Cl)c2)NC(=O)CN(C)C(=O)[C@H](CC2CCCCC2)N(C)C(=O)CN(C)C(=O)CN(C)C1=O | < 6.30 | 
8 | CC[C@H](C)[C@@H]1NC(=O)[C@H](CC(C)C)N(C)C(=O)C[C@@H](C(=O)N2CCCCC2)N(C)C(=O)[C@H](C(C)C)N(C)C(=O)C2(CCCC2)NC(=O)[C@@H]2CCCN2C(=O)[C@H](CCc2ccc(C(F)(F)F)c(Cl)c2)NC(=O)CN(C)C(=O)[C@H](CCOC)N(C)C(=O)[C@@H]2CCN2C(=O)[C@H](C)N(C)C1=O | < 6.30 | 
9 | CC[C@H](C)[C@@H]1NC(=O)[C@H](CC(C)C)N(C)C(=O)C[C@@H](C(=O)N2CCCCC2)N(C)C(=O)[C@H](C2CCCCC2)N(C)C(=O)C2(CCCC2)NC(=O)[C@@H]2Cc3ccccc3N2C(=O)[C@H](CCc2ccc(C(F)(F)F)c(Cl)c2)NC(=O)CN(C)C(=O)[C@H](CC2CCCCC2)N(C)C(=O)[C@@H]2CCCN2C(=O)CN(C)C1=O | < 6.30 | 8.08
10 | CC[C@H](C)[C@@H]1NC(=O)[C@H](CC(C)C)N(C)C(=O)C[C@@H](C(=O)N2CCCCC2)N(C)C(=O)[C@H](C2CCCCC2)N(C)C(=O)C2(CCCC2)NC(=O)[C@@H]2C[C@@H](c3ccccc3)CN2C(=O)[C@H](CCc2ccc(C(F)(F)F)c(Cl)c2)NC(=O)CN(C)C(=O)[C@H](CC2CCCCC2)N(C)C(=O)[C@@H]2CCN2C(=O)[C@H](C)N(C)C1=O | < 6.30 | 
11 | CC[C@H](C)[C@@H]1NC(=O)[C@H](CC(C)C)N(C)C(=O)C[C@@H](C)NC(=O)[C@H](CC2CCCC2)N(C)C(=O)C2(CCCC2)NC(=O)[C@@H]2CCCN2C(=O)[C@H](CCc2ccc(C(F)(F)F)c(Cl)c2)NC(=O)CN(C)C(=O)[C@H](CC2CCCCC2)N(C)C(=O)CN(C)C(=O)CN(C)C1=O | < 6.30 | 
12 | CC[C@H](C)[C@@H]1NC(=O)[C@H](CC2CCCC2)N(C)C(=O)C[C@@H](C(=O)N(C)C)N(C)C(=O)[C@H](C2CCCC2)N(C)C(=O)C2(CCCC2)NC(=O)[C@@H]2CCCN2C(=O)[C@H](CCc2ccc(C(F)(F)F)c(Cl)c2)NC(=O)CN(C)C(=O)[C@H](Cc2ccc(C)cc2)N(C)C(=O)[C@@H]2CCN2C(=O)[C@H](C)NC1=O | ≥ 7.70 | 
13 | CC[C@H](C)[C@@H]1NC(=O)[C@H](CC(C)C)N(C)C(=O)C[C@@H](C(=O)N2CCOCC2)N(C)C(=O)[C@H](C2CCCC2)N(C)C(=O)C2(CCCC2)NC(=O)[C@@H]2CCCN2C(=O)[C@H](CCc2ccc(C(F)(F)F)c(Cl)c2)NC(=O)CN(C)C(=O)[C@H](Cc2ccc(C(F)(F)F)cc2)N(C)C(=O)[C@@H]2CCN2C(=O)[C@H](C)N(C)C1=O | ≥ 7.70 | 9.36
14 | CC[C@H](C)[C@@H]1NC(=O)[C@H](C)N(C)C(=O)C[C@@H](C(=O)N2CCCCC2)N(C)C(=O)[C@H](C(C)C)N(C)C(=O)C2(CCCC2)NC(=O)[C@H](Cc2cccc(C)c2)N(C)C(=O)[C@H](CCc2ccc(C(F)(F)F)c(Cl)c2)NC(=O)CN(C)C(=O)[C@H](CC2CCCCC2)N(C)C(=O)CN(C)C(=O)CN(C)C1=O | < 6.30 | 7.66
15 | CC[C@H](C)[C@@H]1NC(=O)[C@H](C)N(C)C(=O)C[C@@H](C)NC(=O)[C@H](C2CCCC2)N(C)C(=O)C2(CCCC2)NC(=O)[C@@H]2CCCN2C(=O)[C@H](CCc2ccc(C(F)(F)F)c(Cl)c2)NC(=O)CN(C)C(=O)[C@H](Cc2ccc(F)c(F)c2)N(C)C(=O)[C@@H]2CCCN2C(=O)CN(C)C1=O | < 6.30 | 
16 | CC[C@H](C)[C@@H]1NC(=O)[C@H](CC(C)C)N(C)C(=O)C[C@@H](C)N(C)C(=O)[C@H](C(C)C)N(C)C(=O)[C@](C)(CC(C)C)NC(=O)[C@@H]2CCCN2C(=O)[C@H](CCc2ccc(C(F)(F)F)c(Cl)c2)NC(=O)CN(C)C(=O)[C@H](CC2CCCCC2)N(C)C(=O)CN(C)C(=O)CN(C)C1=O | < 6.30 | 
17 | C#CCC[C@H]1C(=O)N[C@@H]([C@@H](C)CC)C(=O)N(C)CC(=O)N(C)CC(=O)N(C)[C@@H](Cc2ccc(I)cc2)C(=O)N(C)CC(=O)N[C@@H](CCc2ccc(C(F)(F)F)c(Cl)c2)C(=O)N2CCC[C@H]2C(=O)NC2(CCCC2)C(=O)N(C)[C@@H](C2CCCCC2)C(=O)N(C)[C@H](C(=O)N2CCCCC2)CC(=O)N1C |  | 9.09
18 | CC[C@H](C)[C@@H]1NC(=O)[C@H](C)N(C)C(=O)C[C@@H](C(=O)N2CCCCC2)N(C)C(=O)[C@H](C(C)C)N(C)C(=O)C2(CCCC2)NC(=O)[C@@H]2CCCN2C(=O)[C@H](CCc2ccc(C(F)(F)F)c(Cl)c2)NC(=O)[C@H]2CCCN2C(=O)[C@H](CC2CCCCC2)N(C)C(=O)[C@@H]2CCCN2C(=O)CN(C)C1=O | < 6.30 | 7.96
19 | CC[C@H](C)[C@@H]1NC(=O)[C@H](C)N(C)C(=O)C[C@@H](C)NC(=O)[C@H](C(C)C)N(C)C(=O)C2(CCCC2)NC(=O)[C@@H]2CCCN2C(=O)[C@H](CCc2ccc(C(F)(F)F)c(Cl)c2)NC(=O)[C@@H](C)N(C)C(=O)[C@H](Cc2ccc(F)cc2)N(C)C(=O)[C@@H]2CCCN2C(=O)CN(C)C1=O | < 6.30 | 7.70
20 | CC[C@H](C)[C@@H]1NC(=O)[C@H](C)N(C)C(=O)C[C@@H](C(=O)N2CCCCC2)N(C)C(=O)[C@H](C(C)C)N(C)C(=O)C2(CCCC2)NC(=O)[C@@H]2CCCN2C(=O)[C@H](CCc2ccc(C(F)(F)F)cc2)NC(=O)CN(C)C(=O)[C@H](CC2CCCCC2)N(C)C(=O)[C@@H]2CCN2C(=O)[C@H](C)N(C)C1=O | < 6.30 | 

Source: US20240148821A1, “PHARMACEUTICAL USE OF CYCLIC PEPTIDE COMPOUND” (CHUGAI SEIYAKU KABUSHIKI KAISHA, priority 2021, published 2024)
